In patent publication US20240066131A1 (Protagonist Therapeutics, Inc., priority 2020, published 2024):

Molecular target: T1, ferroportin (Homo sapiens, UniProt Q9NP59)
T1 sequence (Q9NP59 1-571): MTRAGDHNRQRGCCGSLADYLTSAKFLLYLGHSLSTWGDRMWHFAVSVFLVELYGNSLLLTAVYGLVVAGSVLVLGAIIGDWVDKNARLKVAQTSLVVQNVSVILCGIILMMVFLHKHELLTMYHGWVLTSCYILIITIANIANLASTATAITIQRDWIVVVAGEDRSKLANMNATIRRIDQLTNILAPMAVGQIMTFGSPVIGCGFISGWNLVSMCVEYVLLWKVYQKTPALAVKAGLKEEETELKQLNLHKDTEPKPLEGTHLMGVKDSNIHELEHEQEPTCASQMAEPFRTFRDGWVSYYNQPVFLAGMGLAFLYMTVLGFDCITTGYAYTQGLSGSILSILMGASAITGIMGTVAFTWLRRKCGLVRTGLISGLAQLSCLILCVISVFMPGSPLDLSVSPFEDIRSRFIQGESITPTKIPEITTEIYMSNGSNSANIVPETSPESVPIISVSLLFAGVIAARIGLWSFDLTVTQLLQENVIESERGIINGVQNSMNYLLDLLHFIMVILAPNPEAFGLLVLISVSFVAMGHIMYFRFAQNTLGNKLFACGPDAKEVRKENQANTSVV
Assay: T47D cell-based ferroportin internalization assay in presence of mouse serum albumin (MSA), AF647 detection peptide, flow cytometry
Set-up: a human breast carcinoma adherent cell line which endogenously expresses ferroportin; host or cells: T47D
Conditions: second Table 6D, T47D/MSA data; with mouse serum albumin
Protocol: The potency of the peptides in causing ferroportin internalization was evaluated in a T47D cell-based assay. […] In this internalization assay, the potency of the test peptides was evaluated in presence of serum albumin which is the main protein component in the blood. T47D cells were maintained in RPMI media (containing required amount of fetal bovine serum) and regularly sub-cultured. […] The test peptide dilution series were allowed to incubate at room temperature for 30 min. Then the media was aspirated from the 96-well cell plate and test peptide dilution series were added. After 1 hr incubation, the media with test peptides was aspirated out and A1F647-conjugated detection peptide was added at fixed concentration of 200 nM. […] The cells were washed again after a 2 hr incubation in preparation for flow cytometry analysis. The Median Fluorescence Intensity (MFI) of the AF647-positive population was measured (after removing dead cells and non-singlets from the analysis). The MFI values were used to generate a dose-response curve and obtain IC50 potencies for the test peptides. The IC50 potencies were calculated by using 4-parameter non-linear fitting function in Graphpad Prism (Table 6D).

Row | IC50 | Compound
1 | 15.6 nM | CCCCCCCCCCCCCCCC(=O)NCCCCCC(=O)NCCCC[C@H](NC(=O)C[C@H](Cc1ccccc1)NC(=O)[C@@H]1CCC(=O)NCCCC[C@H](NC(=O)CC(C)C)C(=O)N[C@@H]([C@@H](C)O)C(=O)N[C@@H](Cc2c[nH]cn2)C(=O)N[C@@H](C(c2ccccc2)c2ccccc2)C(=O)N2CCC[C@H]2C(=O)N1)C(N)=O [compound 311]
2 | 101 nM | CCCCCCCCCCCCCCCC(=O)NCCCCCC(=O)NCCCC[C@H](NC(=O)[C@@H]1CCC(=O)NCCCC[C@H](NC(=O)CC(C)C)C(=O)N[C@@H]([C@@H](C)O)C(=O)N[C@@H](Cc2c[nH]cn2)C(=O)N[C@@H](C(c2ccccc2)c2ccccc2)C(=O)N2CCC[C@H]2C(=O)N1)C(N)=O [compound 312]
